PMC4105438, “Novel Benzoxazine-Based Aglycones Block Glucose Uptake In Vivo by Inhibiting Glycosidases” (PLoS ONE, 2014)

By UniProt entry, the sequences of proteins in these tests, tags left out. Where a name states a change or a piece, a line headed by the entry shows the natural chain unless it says otherwise.
UniProt P23739: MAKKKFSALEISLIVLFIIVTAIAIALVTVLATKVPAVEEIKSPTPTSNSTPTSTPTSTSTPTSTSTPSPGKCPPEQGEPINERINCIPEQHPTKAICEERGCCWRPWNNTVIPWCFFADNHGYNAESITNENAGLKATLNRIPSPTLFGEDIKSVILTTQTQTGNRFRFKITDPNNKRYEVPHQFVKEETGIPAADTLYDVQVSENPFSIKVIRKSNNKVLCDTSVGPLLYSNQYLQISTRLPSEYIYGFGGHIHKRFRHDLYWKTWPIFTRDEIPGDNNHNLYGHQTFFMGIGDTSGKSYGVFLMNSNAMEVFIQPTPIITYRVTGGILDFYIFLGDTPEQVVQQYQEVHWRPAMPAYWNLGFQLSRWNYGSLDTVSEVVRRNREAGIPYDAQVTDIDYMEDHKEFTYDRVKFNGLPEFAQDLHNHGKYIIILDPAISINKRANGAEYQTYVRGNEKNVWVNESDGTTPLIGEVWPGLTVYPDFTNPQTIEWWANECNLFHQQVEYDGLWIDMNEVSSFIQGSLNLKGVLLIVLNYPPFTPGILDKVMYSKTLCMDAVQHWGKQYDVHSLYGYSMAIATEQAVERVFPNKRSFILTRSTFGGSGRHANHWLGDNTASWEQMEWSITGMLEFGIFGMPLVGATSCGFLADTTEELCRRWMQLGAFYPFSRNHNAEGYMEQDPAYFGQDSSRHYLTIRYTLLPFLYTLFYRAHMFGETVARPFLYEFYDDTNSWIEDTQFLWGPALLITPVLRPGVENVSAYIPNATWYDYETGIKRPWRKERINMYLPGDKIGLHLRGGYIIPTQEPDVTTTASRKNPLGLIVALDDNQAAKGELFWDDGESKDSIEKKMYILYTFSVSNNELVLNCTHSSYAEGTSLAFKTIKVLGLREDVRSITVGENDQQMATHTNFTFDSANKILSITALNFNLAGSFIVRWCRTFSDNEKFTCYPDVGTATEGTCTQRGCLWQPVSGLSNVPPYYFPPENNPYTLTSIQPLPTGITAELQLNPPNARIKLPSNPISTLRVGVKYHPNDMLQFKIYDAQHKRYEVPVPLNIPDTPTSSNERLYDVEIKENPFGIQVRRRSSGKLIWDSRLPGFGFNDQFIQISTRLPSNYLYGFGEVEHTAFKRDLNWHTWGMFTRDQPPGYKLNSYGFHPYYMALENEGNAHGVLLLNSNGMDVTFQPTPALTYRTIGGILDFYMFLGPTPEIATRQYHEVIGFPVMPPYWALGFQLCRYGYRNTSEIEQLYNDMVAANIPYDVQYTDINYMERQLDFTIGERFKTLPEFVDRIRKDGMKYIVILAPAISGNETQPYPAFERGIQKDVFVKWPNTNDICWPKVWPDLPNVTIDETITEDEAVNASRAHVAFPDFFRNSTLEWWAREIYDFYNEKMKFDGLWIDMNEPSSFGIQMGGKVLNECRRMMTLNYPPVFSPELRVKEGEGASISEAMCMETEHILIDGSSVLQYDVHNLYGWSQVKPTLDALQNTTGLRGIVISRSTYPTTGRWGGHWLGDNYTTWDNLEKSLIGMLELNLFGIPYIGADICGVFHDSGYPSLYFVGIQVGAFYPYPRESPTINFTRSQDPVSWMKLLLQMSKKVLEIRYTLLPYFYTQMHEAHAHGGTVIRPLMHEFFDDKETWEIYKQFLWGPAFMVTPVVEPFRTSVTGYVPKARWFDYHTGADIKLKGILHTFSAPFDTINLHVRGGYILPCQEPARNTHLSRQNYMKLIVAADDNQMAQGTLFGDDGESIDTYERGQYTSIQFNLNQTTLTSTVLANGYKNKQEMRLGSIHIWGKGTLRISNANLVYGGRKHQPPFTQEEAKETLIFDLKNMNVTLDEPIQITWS

Target: T1, rat intestinal sucrase (Rattus norvegicus, UniProt P23739)
T1 construct: the supernatant obtained was used as enzyme source; tissue Sigma Aldrich, St. Louis (USA); host or cells: rat intestinal acetone powder (supernatant of the saline homogenate)
Assay: Intestinal α-glucosidase inhibitory assay, sucrose as substrate
Assay type: biochemical
Conditions: rat intestinal acetone powder, sucrose 56 mM, 60 min
Protocol: Intestinal α-glucosidase activity was determined by measuring the amount of glucose hydrolyzed from maltose or sucrose. Briefly, rat intestinal acetone powder was homogenized in 0.9% saline and the suspension was centrifuged at 10,000 g for 30 min at 4°C and the supernatant obtained was used as enzyme source. […] After the respective incubation period, reaction was terminated by keeping the samples in boiling water bath for 10 min. The concentration of glucose released from the reaction mixtures was determined by using Glucose oxidase (GOD POD) kit according to the manufacturer’s protocol. Results were expressed as percentage inhibition of intestinal maltase/sucrase activity.

Question: With `C[C@H]1O[C@H](O[C@H]2[C@H](O)[C@@H](O)[C@@H](O[C@H]3[C@H](O)[C@@H](O)C(O)O[C@@H]3CO)O[C@@H]2CO)[C@H](O)[C@@H](O)[C@@H]1N[C@H]1C=C(CO)[C@@H](O)[C@H](O)[C@H]1O` (stereo partly shown) [Acarbose, reference compound] as the molecule, how does the pIC50 read?
Answer: 5.40

pIC50: −log10 of the molar value.
